Chains of the proteins cited; added tags and fusions are not shown. Residues count along the entry.
UniProt Q96RI0, 18-385 limits assumed: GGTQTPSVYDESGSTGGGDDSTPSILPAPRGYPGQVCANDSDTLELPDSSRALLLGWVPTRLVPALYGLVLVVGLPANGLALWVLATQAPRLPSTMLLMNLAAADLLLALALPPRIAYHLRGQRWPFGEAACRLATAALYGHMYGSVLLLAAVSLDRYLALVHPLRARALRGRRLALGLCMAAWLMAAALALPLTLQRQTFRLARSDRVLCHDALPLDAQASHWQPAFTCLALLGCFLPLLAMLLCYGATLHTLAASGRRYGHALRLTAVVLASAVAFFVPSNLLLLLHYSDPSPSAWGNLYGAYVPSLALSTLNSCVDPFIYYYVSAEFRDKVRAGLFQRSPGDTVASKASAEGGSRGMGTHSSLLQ

According to patent publication US9862730B2, “Imidazothiadiazole derivatives as protease activated receptor 4 (PAR4) inhibitors for treating platelet aggregation” (BRISTOL-MYERS SQUIBB COMPANY, priority 2012, dated 2018):

Target: PAR4 (Homo sapiens (Human), UniProt Q96RI0)
Test: FLIPR assay in PAR4-expressing HEK293 cells (PAR4 antagonist activity, calcium mobilization)
Assay type: cell-based
Settings: read-out: PAR4 FLIPR Assay (IC50), FLIPR assay as described in Example A

## CCc1nn2cc(-c3cc4c(OC)cccc4o3)nc2s1
  IC50: 91.1 nM
